Experimental data reported in BindingDB's records for doi:10.1021/jm991074s (University of Catania, 2000).

Amino acid sequences for entries named in this document (tags omitted).
UniProt P34972, whole entry: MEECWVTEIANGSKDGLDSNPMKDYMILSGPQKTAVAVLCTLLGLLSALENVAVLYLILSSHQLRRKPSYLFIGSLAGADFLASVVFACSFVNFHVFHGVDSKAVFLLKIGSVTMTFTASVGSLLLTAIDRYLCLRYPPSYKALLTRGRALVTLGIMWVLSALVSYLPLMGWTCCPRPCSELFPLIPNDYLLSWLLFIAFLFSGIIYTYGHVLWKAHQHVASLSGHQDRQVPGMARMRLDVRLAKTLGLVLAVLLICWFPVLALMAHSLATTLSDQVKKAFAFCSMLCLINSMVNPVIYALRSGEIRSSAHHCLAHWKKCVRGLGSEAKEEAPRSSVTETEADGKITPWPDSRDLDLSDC

Biological target: Cannabinoid receptor 2 (Homo sapiens, UniProt P34972)
Assay: Binding affinity towards cloned human cannabinoid receptor 2

C=C(C)[C@@H]1CCC(C)=C[C@H]1c1c(O)cc(CCCCC)cc1O
Ki: 2900 nM
